Data published in PMC9491098, “Discovery of novel drug-like antitubercular hits targeting the MEP pathway enzyme DXPS by strategic application of ligand-based virtual screening” (Chemical Science, 2022).

Chains of the proteins cited; added tags and fusions are not shown.
UniProt Q9RUB5, whole entry H304A: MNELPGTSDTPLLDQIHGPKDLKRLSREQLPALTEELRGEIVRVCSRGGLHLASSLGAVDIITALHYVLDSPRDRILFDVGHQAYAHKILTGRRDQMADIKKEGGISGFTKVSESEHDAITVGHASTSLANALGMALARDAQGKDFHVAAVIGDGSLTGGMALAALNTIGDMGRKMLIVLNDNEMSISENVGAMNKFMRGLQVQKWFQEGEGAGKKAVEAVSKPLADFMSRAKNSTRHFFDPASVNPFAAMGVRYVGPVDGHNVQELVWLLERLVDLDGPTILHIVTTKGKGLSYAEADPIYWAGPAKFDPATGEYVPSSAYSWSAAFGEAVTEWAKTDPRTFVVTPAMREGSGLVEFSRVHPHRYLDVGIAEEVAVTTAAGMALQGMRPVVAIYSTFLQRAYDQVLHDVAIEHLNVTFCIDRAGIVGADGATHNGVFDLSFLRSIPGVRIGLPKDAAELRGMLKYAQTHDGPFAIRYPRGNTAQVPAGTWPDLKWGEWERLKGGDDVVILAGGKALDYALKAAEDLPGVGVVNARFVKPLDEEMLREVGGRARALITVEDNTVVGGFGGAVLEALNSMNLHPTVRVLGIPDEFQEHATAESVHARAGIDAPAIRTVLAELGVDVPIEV

Target: DrDXPS (H304A) (Deinococcus radiodurans, UniProt Q9RUB5, H304A)
Experiment: biochemical

With `Cc1ncc(Cc2csc(CCO)c2C)c(N)n1` [DZT, deazathiamine, reference compound] the IC50 was greater than 4000 µM.

`OCc1cn(Cc2ccc(Cl)c(Cl)c2)c2ccccc12` [Compound 7] showed an inhibition at 100 µM (read-out: Inhibition % at 100 μM) of 32 ± 2%.

Compound `ON=C(Cc1ccc(Cl)cc1)c1ccc(O)cc1O` [Compound 9] has an IC50 greater than 200 µM.

With `Cc1nc(N)sc1-c1csc(Nc2ccc(C(F)(F)F)cc2)n1` [Compound 10] the IC50 was greater than 200 µM.
